US7632933B2, “Corticotropin releasing factor 2 receptor agonists” (priority 2002, dated 2009)
Read-outs that look alike come from different tables or passages of the source.

Legend:
[1] = molecular target: T1, CRF1R (Homo sapiens, UniProt P34998); test: CRF1R agonist activity (EC50 and Emax), called comparative CRF binding; type: cell-based; settings: CRF1R
T1 sequence (P34998 24-415): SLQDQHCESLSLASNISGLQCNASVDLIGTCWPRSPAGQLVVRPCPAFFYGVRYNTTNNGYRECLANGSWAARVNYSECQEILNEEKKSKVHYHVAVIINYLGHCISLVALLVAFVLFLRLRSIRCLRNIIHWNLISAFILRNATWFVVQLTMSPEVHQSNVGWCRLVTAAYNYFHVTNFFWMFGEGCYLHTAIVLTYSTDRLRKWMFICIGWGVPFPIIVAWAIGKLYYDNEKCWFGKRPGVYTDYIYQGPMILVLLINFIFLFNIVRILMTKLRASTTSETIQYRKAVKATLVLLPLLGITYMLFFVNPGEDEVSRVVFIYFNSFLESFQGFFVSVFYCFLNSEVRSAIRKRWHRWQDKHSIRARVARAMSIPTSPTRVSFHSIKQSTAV
In short: (§1)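 Cells expressing CRF1R or CRF2R exposed to peptide or vehicle control; receptor activation read as cAMP induction in cell lysates or via a cAMP-responsive-element reporter gene (e.g. luciferase, CAT, GFP). Signal from any non-target CRFR subtype subtracted.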

[2] = molecular target: T2, CRF2R (Homo sapiens, UniProt Q13324); test: CRF2R agonist activity (EC50 and Emax), called comparative CRF binding; type: cell-based; settings: CRF2R
T2 sequence (Q13324 1-411): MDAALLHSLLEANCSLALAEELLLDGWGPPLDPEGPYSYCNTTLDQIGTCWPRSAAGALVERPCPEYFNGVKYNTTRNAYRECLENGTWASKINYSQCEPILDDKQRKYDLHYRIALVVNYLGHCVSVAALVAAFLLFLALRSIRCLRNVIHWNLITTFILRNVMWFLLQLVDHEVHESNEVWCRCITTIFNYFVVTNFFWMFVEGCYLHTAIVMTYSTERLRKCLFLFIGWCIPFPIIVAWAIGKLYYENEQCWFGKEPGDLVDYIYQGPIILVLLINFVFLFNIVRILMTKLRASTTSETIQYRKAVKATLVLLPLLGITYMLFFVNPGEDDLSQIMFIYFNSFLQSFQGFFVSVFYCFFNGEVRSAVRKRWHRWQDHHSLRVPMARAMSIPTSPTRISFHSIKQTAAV
In short: as §1

## CC[C@H](C)[C@H](NC(=O)[C@H](CCCNC(=N)N)NC(=O)[C@H](C)NC(=O)[C@H](CC(C)C)NC(=O)[C@H](CC(C)C)NC(=O)[C@H](CCCNC(=N)N)NC(=O)[C@H](C)NC(=O)[C@H](CC(N)=O)NC(=O)[C@H](CC(N)=O)NC(=O)[C@H](C)NC(=O)[C@H](C)NC(=O)[C@H](CCC(N)=O)NC(=O)[C@H](CCC(N)=O)NC(=O)[C@H](CCCCN)NC(=O)[C@H](CCC(=O)O)NC(=O)[C@H](CCCCN)NC(=O)[C@H](CCC(=O)O)NC(=O)[C@H](CCC(N)=O)NC(=O)[C@H](CCCCN)NC(=O)[C@H](CCC(=O)O)NC(=O)[C@@H](NC(=O)[C@H](CCC(=O)O)NC(=O)[C@@H](NC(=O)[C@@H](NC(=O)[C@H](CCCCN)NC(=O)[C@H](CCCNC(=N)N)NC(=O)[C@H](CC(C)C)NC(=O)[C@H](CC(C)C)NC(=O)[C@@H](NC(=O)[C@H](CCC(N)=O)NC(=O)[C@@H]1CCCN1C(=O)[C@H](CC(C)C)NC(=O)[C@H](CC(=O)O)NC(=O)[C@@H](NC(=O)[C@H](CO)NC(=O)[C@@H](NC(=O)[C@@H]1CCCN1C(=O)[C@@H]1CCCN1C(=O)CNC(=O)[C@@H]1CCC(=O)N1)[C@@H](C)CC)[C@@H](C)CC)[C@@H](C)CC)C(C)C)[C@@H](C)CC)[C@@H](C)CC)C(N)=O [compound 294]
[1]; CRF1R EC50 (nM)
  EC50: ≥ 1000 nM
[2]; CRF2R EC50 (nM)
  EC50: ≥ 100 nM

## CC[C@H](C)[C@H](NC(=O)[C@H](CCC(=O)O)NC(=O)[C@@H](NC(=O)[C@H](CCSC)NC(=O)[C@H](CCCCN)NC(=O)[C@H](CCCNC(=N)N)NC(=O)[C@H](CC(C)C)NC(=O)[C@H](CC(C)C)NC(=O)[C@H](Cc1c[nH]cn1)NC(=O)[C@H](CC(C)C)NC(=O)[C@@H]1CCCN1C(=O)[C@H](CC(C)C)NC(=O)[C@H](CC(=O)O)NC(=O)[C@@H](NC(=O)[C@H](CO)NC(=O)[C@@H](NC(=O)[C@@H]1CCCN1C(=O)[C@@H]1CCCN1C(=O)CNC(=O)[C@@H]1CCC(=O)N1)[C@@H](C)CC)[C@@H](C)CC)[C@@H](C)CC)C(=O)N[C@@H](CCC(=O)O)C(=O)N[C@@H](CCCCN)C(=O)N[C@@H](CCC(N)=O)C(=O)N[C@@H](CCC(=O)O)C(=O)N[C@@H](CCCCN)C(=O)N[C@@H](CCC(=O)O)C(=O)N[C@@H](CCCCN)C(=O)N[C@@H](CCC(N)=O)C(=O)N[C@@H](CCC(N)=O)C(=O)N[C@@H](C)C(=O)N[C@H](C(=O)N[C@H](C(=O)N[C@@H](CC(N)=O)C(=O)N[C@@H](C)C(=O)N[C@@H](CCCNC(=N)N)C(=O)N[C@@H](CC(C)C)C(=O)N[C@@H](CC(C)C)C(=O)N[C@@H](CC(=O)O)C(=O)N[C@H](C(=O)N[C@H](C(N)=O)C(C)C)[C@@H](C)O)[C@@H](C)O)[C@@H](C)O [compound 238]
[1]; CRF1R EC50 (nM)
  EC50: 753 nM
[2]; CRF2R EC50 (nM)
  EC50: 16.7 nM

## CC[C@H](C)[C@H](N)C(=O)N[C@H](C(=O)N[C@@H](CC(C)C)C(=O)N[C@@H](CO)C(=O)N[C@@H](CC(C)C)C(=O)N[C@@H](CC(=O)O)C(=O)N[C@H](C(=O)N1CCC[C@H]1C(=O)N[C@H](C(=O)NCC(=O)N[C@@H](CC(C)C)C(=O)N[C@@H](CC(C)C)C(=O)N[C@@H](CCC(N)=O)C(=O)N[C@H](C(=O)N[C@@H](CC(C)C)C(=O)N[C@@H](CC(C)C)C(=O)N[C@@H](CCC(=O)O)C(=O)N[C@@H](CCC(N)=O)C(=O)N[C@@H](C)C(=O)N[C@@H](CCCNC(=N)N)C(=O)N[C@@H](C)C(=O)N[C@@H](CCCNC(=N)N)C(=O)N[C@@H](C)C(=O)N[C@@H](C)C(=O)N[C@@H](CCCNC(=N)N)C(=O)N[C@@H](CCC(=O)O)C(=O)N[C@@H](CCC(N)=O)C(=O)N[C@@H](C)C(=O)N[C@H](C(=O)N[C@H](C(=O)N[C@@H](CC(N)=O)C(=O)N[C@@H](C)C(=O)N[C@@H](CCCNC(=N)N)C(=O)N[C@H](C(=O)N[C@@H](CC(C)C)C(=O)N[C@@H](C)C(=O)N[C@@H](CCCNC(=N)N)C(=O)N[C@H](C(N)=O)C(C)C)[C@@H](C)CC)[C@@H](C)O)[C@@H](C)O)[C@@H](C)CC)[C@@H](C)CC)C(C)C)C(C)C [compound 354]
[1]; read-out: CRF1R EC50
  EC50: ≥ 1000 nM
[2]; read-out: CRF2R EC50
  EC50: 6.48 nM

## CC[C@H](C)[C@H](NC(=O)[C@@H](NC(=O)[C@H](C)NC(=O)[C@H](CC(C)C)NC(=O)[C@H](CC(C)C)NC(=O)[C@H](CC(C)C)NC(=O)[C@H](C)NC(=O)[C@H](CC(N)=O)NC(=O)[C@H](CC(N)=O)NC(=O)[C@H](C)NC(=O)[C@H](C)NC(=O)[C@H](CCC(N)=O)NC(=O)[C@H](CCC(N)=O)NC(=O)[C@H](CCCCN)NC(=O)[C@H](CCC(=O)O)NC(=O)[C@H](CCCCN)NC(=O)[C@H](CCC(=O)O)NC(=O)[C@H](CCC(N)=O)NC(=O)[C@H](CCCCN)NC(=O)[C@H](CCC(=O)O)NC(=O)[C@@H](NC(=O)[C@H](CCC(=O)O)NC(=O)[C@@H](NC(=O)[C@H](CCSC)NC(=O)[C@H](CCCCN)NC(=O)[C@H](CCCNC(=N)N)NC(=O)[C@H](CC(C)C)NC(=O)[C@H](CC(C)C)NC(=O)[C@H](Cc1ccc(O)cc1)NC(=O)[C@H](CC(C)C)NC(=O)[C@@H]1CCCN1C(=O)[C@H](CC(C)C)NC(=O)[C@H](CC(=O)O)NC(=O)[C@@H](NC(=O)[C@H](CO)NC(=O)[C@@H](NC(=O)[C@@H]1CCCN1C(=O)[C@@H]1CCCN1C(=O)CNC(=O)[C@@H]1CCC(=O)N1)[C@@H](C)CC)[C@@H](C)CC)[C@@H](C)CC)[C@@H](C)CC)[C@@H](C)O)C(N)=O [compound 245]
[1]; CRF1R EC50 (nM)
  EC50: 381 nM
[2]; CRF2R EC50 (nM)
  EC50: 7.5 nM

## CC[C@H](C)[C@H](NC(=O)[C@@H](NC(=O)[C@H](CC(=O)O)NC(=O)[C@H](CC(C)C)NC(=O)[C@H](CC(C)C)NC(=O)[C@H](CC(C)C)NC(=O)[C@H](CCCNC(=N)N)NC(=O)[C@H](CC(N)=O)NC(=O)[C@H](CC(N)=O)NC(=O)[C@H](C)NC(=O)[C@H](C)NC(=O)[C@H](CCC(N)=O)NC(=O)[C@H](CCC(N)=O)NC(=O)[C@H](CCCCN)NC(=O)[C@H](CCC(=O)O)NC(=O)[C@H](CCCCN)NC(=O)[C@H](CCC(=O)O)NC(=O)[C@H](CCC(N)=O)NC(=O)[C@H](CCCCN)NC(=O)[C@H](CCC(=O)O)NC(=O)[C@@H](NC(=O)[C@H](CCC(=O)O)NC(=O)[C@@H](NC(=O)[C@H](CCSC)NC(=O)[C@H](CCCCN)NC(=O)[C@H](CCCNC(=N)N)NC(=O)[C@H](CC(C)C)NC(=O)[C@H](CC(C)C)NC(=O)[C@H](CCC(N)=O)NC(=O)[C@H](C)NC(=O)[C@@H]1CCCN1C(=O)[C@H](CC(C)C)NC(=O)[C@H](CC(=O)O)NC(=O)[C@@H](NC(=O)[C@H](CO)NC(=O)[C@@H](NC(=O)[C@@H]1CCCN1C(=O)[C@@H]1CCCN1C(=O)CNC(=O)[C@@H]1CCC(=O)N1)[C@@H](C)CC)[C@@H](C)CC)[C@@H](C)CC)[C@@H](C)CC)[C@@H](C)O)C(N)=O [compound 211]
[1]; CRF1R EC50 (nM)
  EC50: 826 nM
[2]; CRF2R EC50 (nM)
  EC50: 59.5 nM
